The results in this text go back to ChEMBL document CHEMBL5705903, “A DNA Hypomethylation Signature Predicts Antitumor Activity of LSD1 Inhibitors in SCLC” (Cancer Cell, 2015).

Amino acid sequences for entries named in this document (tags omitted).
UniProt P27338, whole entry: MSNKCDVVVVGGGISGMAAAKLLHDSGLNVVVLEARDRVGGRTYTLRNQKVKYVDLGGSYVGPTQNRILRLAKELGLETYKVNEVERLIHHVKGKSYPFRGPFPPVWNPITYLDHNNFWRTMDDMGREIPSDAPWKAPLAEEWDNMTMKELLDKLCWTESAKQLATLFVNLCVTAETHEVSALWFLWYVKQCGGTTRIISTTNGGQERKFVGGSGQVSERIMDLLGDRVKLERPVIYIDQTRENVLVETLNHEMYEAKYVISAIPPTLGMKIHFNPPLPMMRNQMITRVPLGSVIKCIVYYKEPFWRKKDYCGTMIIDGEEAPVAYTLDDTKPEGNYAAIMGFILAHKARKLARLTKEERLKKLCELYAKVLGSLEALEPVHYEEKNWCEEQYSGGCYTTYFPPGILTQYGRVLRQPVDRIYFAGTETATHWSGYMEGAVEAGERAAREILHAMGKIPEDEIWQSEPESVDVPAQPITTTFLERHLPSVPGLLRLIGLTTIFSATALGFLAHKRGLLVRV

In general, pIC50 refers to the negative decadic logarithm of the IC50, by convention in mol/L. Low values mean a large IC50, high ones a small IC50.

pIC50: −log10 of the molar value.

This test deals with Amine oxidase [flavin-containing] B (Homo sapiens, UniProt P27338). As to the kind of experiment: Inhibition of MAO-B (unknown origin).

For `c1ccc([C@@H]2C[C@H]2NC2CCNCC2)cc1`, the negative logarithm of the IC50 (pIC50) was 4.40.
